From ChEMBL document CHEMBL5356990, “Overview of CFTR activators and their recent studies for dry eye disease: a review” (RSC Med Chem, 2023)

Amino acid sequences for entries named in this document (tags omitted). Chains listed by the source or under a name are the forms on record and can include a tag or linker.
UniProt P13569, as listed by the source: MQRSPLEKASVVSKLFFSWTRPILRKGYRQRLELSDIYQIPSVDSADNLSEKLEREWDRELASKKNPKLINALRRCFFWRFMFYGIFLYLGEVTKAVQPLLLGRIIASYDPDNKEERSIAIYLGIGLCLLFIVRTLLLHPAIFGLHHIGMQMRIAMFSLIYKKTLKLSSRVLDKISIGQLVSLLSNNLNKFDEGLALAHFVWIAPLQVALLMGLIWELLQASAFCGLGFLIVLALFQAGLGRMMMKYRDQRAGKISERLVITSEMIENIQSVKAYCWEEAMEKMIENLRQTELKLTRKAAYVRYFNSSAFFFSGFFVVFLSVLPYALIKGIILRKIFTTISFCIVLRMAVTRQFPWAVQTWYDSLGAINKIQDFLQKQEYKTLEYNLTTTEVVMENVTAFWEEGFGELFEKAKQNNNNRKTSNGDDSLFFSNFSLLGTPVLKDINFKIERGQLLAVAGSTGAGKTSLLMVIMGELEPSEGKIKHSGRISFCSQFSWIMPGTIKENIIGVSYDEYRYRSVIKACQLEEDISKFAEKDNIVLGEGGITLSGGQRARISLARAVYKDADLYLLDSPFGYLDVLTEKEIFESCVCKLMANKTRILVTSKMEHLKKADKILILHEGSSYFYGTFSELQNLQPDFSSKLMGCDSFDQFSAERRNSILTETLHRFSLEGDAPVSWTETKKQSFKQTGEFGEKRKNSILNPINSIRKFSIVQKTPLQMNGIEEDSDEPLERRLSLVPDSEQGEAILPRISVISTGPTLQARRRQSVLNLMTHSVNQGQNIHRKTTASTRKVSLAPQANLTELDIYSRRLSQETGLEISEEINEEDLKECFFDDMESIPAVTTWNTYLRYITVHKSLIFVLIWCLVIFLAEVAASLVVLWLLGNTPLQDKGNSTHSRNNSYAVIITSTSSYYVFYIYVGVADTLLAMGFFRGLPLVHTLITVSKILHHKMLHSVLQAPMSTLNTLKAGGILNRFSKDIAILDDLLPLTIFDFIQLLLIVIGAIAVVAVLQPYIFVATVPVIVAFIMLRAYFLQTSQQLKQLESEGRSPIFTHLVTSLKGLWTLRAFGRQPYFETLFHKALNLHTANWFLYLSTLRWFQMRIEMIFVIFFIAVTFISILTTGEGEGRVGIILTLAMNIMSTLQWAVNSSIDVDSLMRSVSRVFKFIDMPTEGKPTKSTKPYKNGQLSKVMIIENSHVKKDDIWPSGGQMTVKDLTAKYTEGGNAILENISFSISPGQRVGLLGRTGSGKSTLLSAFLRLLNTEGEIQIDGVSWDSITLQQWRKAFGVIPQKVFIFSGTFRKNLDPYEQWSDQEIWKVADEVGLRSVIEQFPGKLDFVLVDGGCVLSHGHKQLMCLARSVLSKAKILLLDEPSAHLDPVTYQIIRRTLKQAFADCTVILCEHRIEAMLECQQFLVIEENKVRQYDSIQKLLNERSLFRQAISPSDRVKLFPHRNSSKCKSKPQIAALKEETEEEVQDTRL
UniProt P13569, whole entry, looked up: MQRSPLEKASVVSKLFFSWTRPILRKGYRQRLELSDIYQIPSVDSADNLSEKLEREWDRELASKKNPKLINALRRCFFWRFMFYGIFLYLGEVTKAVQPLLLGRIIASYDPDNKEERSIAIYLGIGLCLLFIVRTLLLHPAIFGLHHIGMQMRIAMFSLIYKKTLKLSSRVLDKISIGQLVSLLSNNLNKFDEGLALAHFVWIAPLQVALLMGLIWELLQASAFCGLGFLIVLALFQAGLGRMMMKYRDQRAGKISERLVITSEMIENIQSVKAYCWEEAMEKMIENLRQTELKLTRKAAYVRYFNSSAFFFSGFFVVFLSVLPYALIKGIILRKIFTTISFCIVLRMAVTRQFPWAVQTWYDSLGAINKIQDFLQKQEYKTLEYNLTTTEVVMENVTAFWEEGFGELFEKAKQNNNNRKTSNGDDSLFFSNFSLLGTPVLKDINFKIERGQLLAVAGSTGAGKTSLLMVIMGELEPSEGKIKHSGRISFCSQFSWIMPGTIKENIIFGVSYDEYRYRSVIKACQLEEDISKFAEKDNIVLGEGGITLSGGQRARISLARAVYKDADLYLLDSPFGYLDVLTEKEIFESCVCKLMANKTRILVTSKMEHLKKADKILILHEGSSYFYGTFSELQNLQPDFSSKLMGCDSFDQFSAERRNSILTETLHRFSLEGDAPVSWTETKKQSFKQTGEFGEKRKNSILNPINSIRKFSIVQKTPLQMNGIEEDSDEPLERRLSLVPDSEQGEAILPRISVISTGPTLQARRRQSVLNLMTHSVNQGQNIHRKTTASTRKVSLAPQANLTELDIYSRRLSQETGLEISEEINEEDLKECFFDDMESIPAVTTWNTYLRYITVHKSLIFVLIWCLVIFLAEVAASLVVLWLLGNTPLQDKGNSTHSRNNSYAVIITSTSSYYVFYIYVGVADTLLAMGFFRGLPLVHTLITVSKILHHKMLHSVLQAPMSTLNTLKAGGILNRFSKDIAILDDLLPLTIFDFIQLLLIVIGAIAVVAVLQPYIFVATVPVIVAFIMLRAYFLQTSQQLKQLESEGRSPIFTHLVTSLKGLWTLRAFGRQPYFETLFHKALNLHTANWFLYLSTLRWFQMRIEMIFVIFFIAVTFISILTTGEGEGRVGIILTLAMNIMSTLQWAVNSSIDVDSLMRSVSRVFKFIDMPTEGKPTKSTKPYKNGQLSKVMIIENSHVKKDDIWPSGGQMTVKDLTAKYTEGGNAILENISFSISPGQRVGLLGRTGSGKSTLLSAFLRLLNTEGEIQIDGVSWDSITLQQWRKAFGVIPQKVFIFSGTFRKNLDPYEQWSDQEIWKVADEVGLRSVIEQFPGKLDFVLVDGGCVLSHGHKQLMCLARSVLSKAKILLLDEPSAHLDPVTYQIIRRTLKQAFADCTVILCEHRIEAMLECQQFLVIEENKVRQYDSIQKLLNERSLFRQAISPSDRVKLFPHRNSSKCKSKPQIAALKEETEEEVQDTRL

Columns and labels:
Details in all cases: filed as opener
[1] = test system: Cystic fibrosis transmembrane conductance regulator (Homo sapiens), P13569 [F508del]; assay: Activation of CFTR F508del mutant (unknown origin)
[2] = molecular target: T1, Cystic fibrosis transmembrane conductance regulator (Homo sapiens, UniProt P13569); assay: Activation of wildtype CFTR chloride channel (unknown origin) expressed in human Calu-3 cells; format: cell-based
[3] = molecular target: T1, Cystic fibrosis transmembrane conductance regulator; assay: Activation of wildtype CFTR chloride channel (unknown origin) expressed in CHO cells; format: cell-based

Activity [1]: 111 nM
Activity [2]: 140 nM
Activity [3]: 140 nM
Structure (SMILES): CCCCc1c(-c2ccc(O)cc2)[nH]c2nccnc12
